Assay results as given in patent publication US10016408B2, “Chemokine CXCR4 receptor modulators and uses related thereto” (EMORY UNIVERSITY, priority 2010, dated 2018).
pIC50: −log10 of the molar value. Like-named read-outs stand apart in the source and are kept apart here.

Test system: HIV-1 IIIB
Assay: MAGI-CXCR4 HIV-1 IIIB antiviral assay (β-galactosidase reporter)
Conditions: MAGI-CXCR4 cells
From the text: Example 2: MAGI-CXCR4 HIV-1 IIIB Assay Procedure
MAGI-CXC4 cells (obtained from the NIH AIDS Research and Reference Reagent Program) are passed into T-75 flasks prior to use in the antiviral assay. MAGI-CXCR4 cells are derived from HeLa-CD4-LTR-β-gal cells. The cells have been engineered to express high levels of CD4 and […] and contain one copy of the HIV-1 LTR promoter driving expression of the β-galactosidase gene upon HIV-1 Tat transactivation. On the day preceding the assay, the cells are plated at 1.0×10^4 per well and incubated at 37° C. overnight. Total cell and viability quantification is performed using a hemacytometer and trypan blue exclusion. […]
Compounds are evaluated at one or two concentrations (e.g., for initial screening) or in dose-response at six concentrations (triplicate wells/concentration). […] The cultures are incubated for 48 hours or 6 days (depending on compound or client requirements) after which antiviral efficacy is measured as the inhibition of β-galactosidase reporter expression and cytotoxicity is monitored by MTS staining.
A chemiluminescent endpoint is used to determine the extent of β-galactosidase expression as a measure of HIV-1 infection of the cells. […] Thus there is a direct relationship between the level of HIV-1 infection and the level of β-galactosidase detected in the cells. […]

NCCCCN(CC1CN(Cc2ccccc2)CCN1)C1CCCc2cccnc21 (centres unmarked) [Compound 8]
pIC50 (read-out: HIV IC50, further testing): 6.82 | pIC50 (read-out: MAGI HIV IIIB IC50): 6.82
